# Source: paper PMC5933747 (PLoS ONE, 2018)
# The chains behind the UniProt entries cited, without tags or fusion partners.
# UniProt Q15858, whole entry: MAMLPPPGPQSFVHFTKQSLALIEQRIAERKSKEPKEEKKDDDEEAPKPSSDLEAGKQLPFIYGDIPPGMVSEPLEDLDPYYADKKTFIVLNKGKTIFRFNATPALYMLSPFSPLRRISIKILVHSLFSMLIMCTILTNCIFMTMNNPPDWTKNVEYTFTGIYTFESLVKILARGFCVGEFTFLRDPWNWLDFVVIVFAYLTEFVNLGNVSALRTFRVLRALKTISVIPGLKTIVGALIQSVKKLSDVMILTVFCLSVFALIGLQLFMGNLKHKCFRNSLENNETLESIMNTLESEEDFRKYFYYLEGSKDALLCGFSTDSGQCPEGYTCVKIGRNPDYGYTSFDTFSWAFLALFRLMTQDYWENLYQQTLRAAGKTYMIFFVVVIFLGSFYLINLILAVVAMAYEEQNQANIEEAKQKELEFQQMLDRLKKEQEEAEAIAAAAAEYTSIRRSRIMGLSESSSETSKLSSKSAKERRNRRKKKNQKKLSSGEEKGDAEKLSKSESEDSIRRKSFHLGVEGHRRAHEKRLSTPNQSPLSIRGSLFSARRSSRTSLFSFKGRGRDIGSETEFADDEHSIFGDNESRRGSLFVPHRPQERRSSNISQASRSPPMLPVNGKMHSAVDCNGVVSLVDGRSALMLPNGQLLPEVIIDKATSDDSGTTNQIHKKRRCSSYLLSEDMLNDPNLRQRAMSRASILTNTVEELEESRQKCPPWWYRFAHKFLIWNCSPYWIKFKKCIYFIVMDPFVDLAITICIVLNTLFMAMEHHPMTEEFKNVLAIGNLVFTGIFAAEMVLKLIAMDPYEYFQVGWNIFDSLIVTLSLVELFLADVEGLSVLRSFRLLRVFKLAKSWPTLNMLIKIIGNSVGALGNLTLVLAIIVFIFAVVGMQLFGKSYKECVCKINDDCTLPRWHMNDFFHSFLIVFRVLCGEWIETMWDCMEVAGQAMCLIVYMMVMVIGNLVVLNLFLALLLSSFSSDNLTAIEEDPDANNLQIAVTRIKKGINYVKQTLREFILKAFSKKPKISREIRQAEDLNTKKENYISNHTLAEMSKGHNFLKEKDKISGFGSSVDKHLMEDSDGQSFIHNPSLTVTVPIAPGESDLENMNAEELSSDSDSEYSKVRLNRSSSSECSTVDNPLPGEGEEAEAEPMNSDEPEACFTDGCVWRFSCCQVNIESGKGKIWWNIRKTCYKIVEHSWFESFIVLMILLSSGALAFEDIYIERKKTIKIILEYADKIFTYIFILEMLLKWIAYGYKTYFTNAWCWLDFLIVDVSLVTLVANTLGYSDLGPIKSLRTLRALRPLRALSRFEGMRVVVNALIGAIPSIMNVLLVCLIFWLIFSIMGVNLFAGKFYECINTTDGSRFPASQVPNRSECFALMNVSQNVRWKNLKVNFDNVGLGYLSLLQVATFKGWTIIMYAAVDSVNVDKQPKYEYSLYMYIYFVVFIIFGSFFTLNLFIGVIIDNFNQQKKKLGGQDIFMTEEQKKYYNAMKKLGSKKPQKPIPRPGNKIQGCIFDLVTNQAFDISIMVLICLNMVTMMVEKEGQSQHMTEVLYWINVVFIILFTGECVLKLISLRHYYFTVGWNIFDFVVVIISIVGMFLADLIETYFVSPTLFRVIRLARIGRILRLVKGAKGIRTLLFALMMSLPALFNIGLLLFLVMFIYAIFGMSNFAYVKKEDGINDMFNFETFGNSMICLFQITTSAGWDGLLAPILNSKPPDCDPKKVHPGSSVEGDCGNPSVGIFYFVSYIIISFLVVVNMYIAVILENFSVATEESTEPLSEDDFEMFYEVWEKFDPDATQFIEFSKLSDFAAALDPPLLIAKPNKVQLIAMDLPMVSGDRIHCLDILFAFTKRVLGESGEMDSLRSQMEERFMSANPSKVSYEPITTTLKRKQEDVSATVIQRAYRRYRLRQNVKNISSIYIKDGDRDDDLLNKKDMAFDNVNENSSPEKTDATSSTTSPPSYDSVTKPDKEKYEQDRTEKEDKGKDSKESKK
# Biological target: human NaV1.7 (Homo sapiens, UniProt Q15858)
# Experiment: 125I-ProTx-II radioligand binding to live HEK293 cells stably expressing human NaV1.7
# Conditions: 0.5 nM 125I-ProTx-II, 3 h, increasing concentrations of cold peptide
substance,measurement,value
ProTx-II,competition for 125I-ProTx-II binding,competed
